Data published in ChEMBL document CHEMBL5634115, “Exploring novel anticancer pyrazole benzenesulfonamides featuring tail approach strategy as carbonic anhydrase inhibitors” (Eur J Med Chem, 2023).

Molecular target: Carbonic anhydrase 9 (Homo sapiens, UniProt Q16790)

## NNC(=O)c1cc(-c2ccc([N+](=O)[O-])cc2)n(-c2ccc(S(N)(=O)=O)cc2)n1
  Ki: 2.3 nM
